The values that follow come from patent US20170296521A1, “PHARMACEUTICAL COMPOSITION FOR SUPPRESSION OF THROMBOEMBOLISM AFTER STENT PLACEMENT” (priority 2014, published 2017).

Protein sequences, listed by entry. Tags and fused reporters are not part of them. Residues count along the entry.
UniProt P00742, 41-179 partner limits assumed: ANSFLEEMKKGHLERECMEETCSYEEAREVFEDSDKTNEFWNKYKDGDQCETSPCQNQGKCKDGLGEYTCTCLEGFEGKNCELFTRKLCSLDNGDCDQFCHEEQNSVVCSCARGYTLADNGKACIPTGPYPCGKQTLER
UniProt P00742, 235-488 limits assumed: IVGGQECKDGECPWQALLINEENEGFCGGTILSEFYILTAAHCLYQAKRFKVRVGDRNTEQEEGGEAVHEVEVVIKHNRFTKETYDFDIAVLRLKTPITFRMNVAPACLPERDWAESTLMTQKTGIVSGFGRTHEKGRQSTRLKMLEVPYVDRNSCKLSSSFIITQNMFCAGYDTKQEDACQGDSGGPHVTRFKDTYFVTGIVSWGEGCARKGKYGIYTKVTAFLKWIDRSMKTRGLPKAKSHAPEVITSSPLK

In this assay the target is human FXa (Homo sapiens, UniProt P00742). The settings on record: Example 1, FIG. 1B; 0.3, 1 or 3 mg/kg orally. As to the method:
A 0.5% MC solution (10 mL/kg or 15 mL/kg) was orally administered to a control group. […] The collected thrombus-attached stents were stored at −20° C. until protein quantification. […] Then, the anti-FXa activity in the plasma was measured.

For the compound `CN1CCc2nc(C(=O)N[C@@H]3C[C@@H](C(=O)N(C)C)CC[C@@H]3NC(=O)C(=O)Nc3ccc(Cl)cn3)sc2C1.Cc1ccc(S(=O)(=O)O)cc1` [edoxaban, N-(5-chloropyridin-2-yl)-N′-[(1S,2R,4S)-4-(dimethylcarbamoyl)-2-(5-methyl-4,5,6,7-tetrahydro[1,3]thiazolo[5,4-c]pyridine-2-carboxamido)cyclohexyl]oxamide], the “anti-FXa activity in the plasma after oral administration” value is “dose-dependent (P<0.001) and significant”.
